Curated experimental data: melting point values

Values as listed in the OPERA 2.9 repository of K. Mansouri.

Melting points are in °C.

Listed for NC(=NO)c1cccc(Br)c1: MP 133 °C. For O=C(O)c1ccc(CS)cc1 the data give MP 180 °C. The entry for CN(C)S(=O)(=O)c1ccc(C(=O)O)cc1 lists MP 250 °C. CC1(C)Nc2ccccc2NC1=O is reported with MP 180 °C. Listed for Oc1cccc2c1NCCC2: MP 117 °C. O=C(O)CNC1=NCCCCC1 is reported with MP 164 °C. For CCN(CC)S(=O)(=O)c1ccc(NC(=O)CCl)cc1 the data give MP 104 °C. Listed for O=C(O)c1[nH]c2ccccc2c1Cl: MP 180 °C.

The entry for CCOc1ccc(/N=C(\C)Nc2ccc(OCC)cc2)cc1.Cl lists MP 191 °C. CC(=O)N[C@H]1[C@H](OC(C)=O)O[C@H](COC(C)=O)[C@@H](OC(C)=O)[C@@H]1OC(C)=O is reported with MP 186.5 °C. Listed for Clc1nc(-c2cccnc2)nc2sc3c(c12)CCCC3: MP 138 °C. For OC(c1ccccc1)C1CCNCC1 (stereo unspecified) the data give MP 172 °C. Oc1cccc(-c2cccc(O)c2)c1 has MP 125 °C. For Cc1ccn2cc(C(=O)O)nc2c1 the data give MP 227 °C. COc1cc(C(=O)O)ccc1OC1CCCC1 has MP 154 °C. Cc1cc(C)c2c(c1)NC(=O)C2=O has MP 234 °C.

CNc1ccccc1C(=O)OC1CC2(C)C(O)CC3(C)C4(C)CCC5C(C)(CO)C(OC6OCC(OC7OC(CO)C(O)C(O)C7O)C(O)C6OC6OC(CO)C(O)C(O)C6O)CCC5(C)C4CC4OC43C2CC1(C)C=O (stereo unspecified) has MP 230.5 °C. O=Cc1csc(-c2ccc(Cl)cc2)n1 is reported with MP 125 °C. CCOC(=O)c1noc(N)c1-c1ccccc1 is reported with MP 111 °C. O=C(O)CNC(=O)c1ccccc1Br has MP 139 °C. Listed for O=C(O)c1cc(-c2cccc(Br)c2)nc2ccccc12: MP 216 °C. For O=C(CCl)Nc1ccc(F)c(F)c1 the data give MP 107 °C. Nc1ccc(S(=O)(=O)Nc2cccc(Cl)c2)cc1 is reported with MP 133 °C. O=C(O)c1ccc2nc(Cl)ccc2c1 is reported with MP 229 °C.

O=C(O)C1CNCc2ccccc21 (stereo unspecified) has MP 234 °C. CCN(CC[N+](C)(C)CC(C)O)c1ccc(/N=N/c2ccc([N+](=O)[O-])cc2Cl)cc1.[Cl-] (stereo partly drawn) has MP 187.5 °C. The entry for O=C(c1cc(Cl)nc2ccccc12)N1CCOCC1 lists MP 176 °C. Cn1c(-c2ccncc2)n[nH]c1=S is reported with MP 122 °C. The entry for O=C(O)COc1ccccc1-c1ccccc1 lists MP 103 °C. O=C1C=CC(=O)N1c1ccc2ccccc2c1 has MP 122 °C.

Excerpt, the final 3 entries:

| SMILES | MP (°C) |
|---|---|
| Cn1c(-c2ccncc2)n[nH]c1=S | 122 |
| O=C(O)COc1ccccc1-c1ccccc1 | 103 |
| O=C1C=CC(=O)N1c1ccc2ccccc2c1 | 122 |

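The numbers are reported measurements, compiled and curated for the OPERA QSAR suite. The files give a single number for a compound and property, which may rest on several reports. Method and conditions are not stated for these values. The measured form (salt, isomer or mixture) is not always the one drawn. Unmarked limits or estimates from the upstream databases cannot be ruled out.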